According to patent US20140322278A1, “Modulation of Tissue Transglutaminase Activation in Disease” (The Board of Trustees of the Leland Stanford Junior …, priority 2011, published 2014):

Target: T1, human oxidized TG2 (Homo sapiens, UniProt P21980)
T1 construct: host or cells: Trx from recombinant E. coli
T1 sequence (P21980 1-687): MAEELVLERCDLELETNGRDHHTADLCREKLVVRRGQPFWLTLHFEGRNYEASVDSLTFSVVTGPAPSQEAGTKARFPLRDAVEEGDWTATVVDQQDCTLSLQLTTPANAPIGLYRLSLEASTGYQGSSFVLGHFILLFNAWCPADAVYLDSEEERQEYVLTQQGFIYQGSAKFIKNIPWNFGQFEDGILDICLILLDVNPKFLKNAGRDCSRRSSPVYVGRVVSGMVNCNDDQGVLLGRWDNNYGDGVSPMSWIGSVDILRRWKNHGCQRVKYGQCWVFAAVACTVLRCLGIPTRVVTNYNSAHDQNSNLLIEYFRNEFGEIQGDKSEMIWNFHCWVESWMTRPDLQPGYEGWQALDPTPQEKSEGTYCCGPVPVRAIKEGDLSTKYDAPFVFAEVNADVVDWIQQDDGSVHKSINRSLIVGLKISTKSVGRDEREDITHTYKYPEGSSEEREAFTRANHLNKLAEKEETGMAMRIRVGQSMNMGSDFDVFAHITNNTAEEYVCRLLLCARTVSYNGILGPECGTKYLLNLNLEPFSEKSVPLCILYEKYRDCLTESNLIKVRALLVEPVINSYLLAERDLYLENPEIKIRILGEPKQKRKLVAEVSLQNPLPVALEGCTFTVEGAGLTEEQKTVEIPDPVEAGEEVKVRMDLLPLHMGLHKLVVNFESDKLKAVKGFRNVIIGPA
Experiment: Kinetics of Trx-mediated reduction of oxidized TG2
Type: biochemical
Procedure: To test our hypothesis, we measured the kinetics of Trx-mediated activation of oxidized TG2. Reduced forms of Trx from E. coli and human were prepared by overexpression in and purification from recombinant E. coli. Dithiothreitol (DTT) was used as a reference small molecule reducing agent. […] We therefore quantified the specificity of human Trx for human oxidized TG2 by measuring the Michaelis-Menten parameters for Trx-mediated reduction of oxidized TG2. Insulin, a well-characterized extracellular substrate of Trx, was used as a reference, and human thioredoxin reductase was used as a catalyst to achieve turnover under steady-state conditions. […] Based on these parameters, one can estimate that as little as 2.5 nM Trx in the extracellular matrix should be able to activate 10% of the local oxidized TG2 within 30 min.

B1: recombinant human Trx: reduced human thioredoxin, overexpressed in and purified from recombinant E. coli (protein, UniProt P10599 2-105, looked up)
Thioredoxin: VKQIESKTAFQEALDAAGDKLVVVDFSATWCGPCKMIKPFFHSLSEKYSNVIFLEVDVDDCQDVASECEVKCMPTFQFFKKGQKVGEFSGANKEKLEATINELV
modifications: reduced
notes: reduced human thioredoxin, overexpressed in and purified from recombinant E. coli
second order rate constant for reduction of oxidized TG2, relative to DTT (comparable conditions): at least 100 times | second order rate constant for reduction of oxidized TG2, relative to E. coli Trx (comparable conditions): at least 150 times | Km (human thioredoxin reductase as catalyst, steady state): 21 µM
